This is an account of results in ChEMBL document CHEMBL5360540, “Antitumor effect of 3-(quinolin-2-ylmethylene)-4,6-dimethyl-5-hydroxy-7-azaoxindole down-regulating the Gas6-Axl axis” (Eur J Med Chem, 2023).

Assay [1] concerns T1, Tyrosine-protein kinase receptor UFO (Homo sapiens), P30530 [R499C].
T1 sequence (whole entry): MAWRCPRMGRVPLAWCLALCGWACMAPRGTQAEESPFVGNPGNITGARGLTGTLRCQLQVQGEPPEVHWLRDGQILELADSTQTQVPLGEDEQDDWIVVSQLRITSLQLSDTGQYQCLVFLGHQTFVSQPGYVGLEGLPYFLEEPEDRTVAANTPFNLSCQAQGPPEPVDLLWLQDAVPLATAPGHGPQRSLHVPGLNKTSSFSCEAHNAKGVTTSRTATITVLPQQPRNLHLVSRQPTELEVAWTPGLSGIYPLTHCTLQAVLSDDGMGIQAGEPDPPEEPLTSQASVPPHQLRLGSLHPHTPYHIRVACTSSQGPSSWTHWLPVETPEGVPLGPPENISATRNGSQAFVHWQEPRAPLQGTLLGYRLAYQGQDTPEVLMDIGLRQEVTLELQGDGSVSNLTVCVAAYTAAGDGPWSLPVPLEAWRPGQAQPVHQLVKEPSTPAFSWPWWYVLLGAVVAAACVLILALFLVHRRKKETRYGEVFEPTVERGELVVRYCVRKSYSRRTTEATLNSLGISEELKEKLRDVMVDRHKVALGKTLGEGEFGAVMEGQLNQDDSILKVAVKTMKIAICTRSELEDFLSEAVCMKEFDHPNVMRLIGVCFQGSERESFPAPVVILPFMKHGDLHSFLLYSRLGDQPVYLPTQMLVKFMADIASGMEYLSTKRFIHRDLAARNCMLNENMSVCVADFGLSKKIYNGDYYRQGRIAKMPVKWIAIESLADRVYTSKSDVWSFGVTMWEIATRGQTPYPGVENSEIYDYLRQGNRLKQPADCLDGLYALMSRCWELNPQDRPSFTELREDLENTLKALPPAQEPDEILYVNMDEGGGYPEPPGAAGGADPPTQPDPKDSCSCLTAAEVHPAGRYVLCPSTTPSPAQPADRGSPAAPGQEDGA
Description: Inhibition of human AXL R499C mutant using MEK1 as substrate at 10 uM incubated for 40 mins by gamma33P-ATP based scintillation counter analysis relative to control.

The test system is the same in assay [2]. Kind of assay: Inhibition of human AXL R499C mutant using MEK1 as substrate at 1 uM incubated for 40 mins by gamma33P-ATP based scintillation counter analysis relative to control.

Take `Cc1nc2c(c(C)c1O)/C(=C/c1ccc3ccccc3n1)C(=O)N2`: the inhibition in assay [1] came to 8.3%; in assay [2] it was 1.2%.

A word on the inhibition: it is the relative decrease from the control value, in per cent. A higher inhibition goes with strong suppression.
